The source of these data is patent US20070286846A1, “Novel methods for ester detoxication” (published 2007).

Sequences of proteins named here, by UniProt entry; tags and fusion partners are left off. A change or cut given only in a name is not applied to a line headed by its entry.
UniProt P06276: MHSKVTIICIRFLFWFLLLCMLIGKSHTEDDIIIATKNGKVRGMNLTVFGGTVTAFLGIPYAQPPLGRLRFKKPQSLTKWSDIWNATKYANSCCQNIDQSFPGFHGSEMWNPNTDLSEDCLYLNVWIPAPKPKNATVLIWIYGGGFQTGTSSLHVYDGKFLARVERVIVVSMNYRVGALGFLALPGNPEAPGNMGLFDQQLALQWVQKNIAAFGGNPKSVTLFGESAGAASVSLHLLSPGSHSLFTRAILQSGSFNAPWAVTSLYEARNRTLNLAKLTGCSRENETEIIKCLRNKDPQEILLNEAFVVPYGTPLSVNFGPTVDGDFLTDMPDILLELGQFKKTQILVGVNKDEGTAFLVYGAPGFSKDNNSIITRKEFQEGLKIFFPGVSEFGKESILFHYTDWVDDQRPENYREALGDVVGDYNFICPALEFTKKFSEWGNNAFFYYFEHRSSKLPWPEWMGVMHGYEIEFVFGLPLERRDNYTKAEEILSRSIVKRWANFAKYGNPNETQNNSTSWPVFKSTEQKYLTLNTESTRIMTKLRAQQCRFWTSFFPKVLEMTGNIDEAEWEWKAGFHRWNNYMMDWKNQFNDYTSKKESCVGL

One test has as its system Monkey BchE (RhBchE). In words: Ki on BchI hydrolysis inhibition, Monkey BchE. The note with it: for Ki: read-out: Ki, Monkey BchE, BchI hydrolysis inhibition, 50 mM potassium phosphate, pH 7.4, 25° C.
In another test the target is Human BchE (HuBchE) (Homo sapiens, UniProt P06276). In words: Ki on BchI hydrolysis inhibition, Human BchE. The note with it: read-out: Ki, Human BchE, 50 mM potassium phosphate, pH 7.4, 25° C.

As usually defined, the Ki is the dissociation constant of the complex between target and ligand, obtained from inhibition or displacement.

With (+)-cocaine, the “fold higher Ki for RhBchE than HuBchE” value with Monkey BchE (RhBchE) (from Table 3) was determined as 2 fold. Moreover, the Ki in the test on Monkey BchE (RhBchE) amounted to 15.3 µM; on Human BchE (HuBchE) it was 8 µM.

Take (−)-Ecgonine methyl ester: the “inhibition of BchI hydrolysis” value in the test on Monkey BchE (RhBchE) (concentration tested 0-100 μM) was “did not inhibit”.

Consider (−)-cocaine, for which the “fold higher affinity for RhBchE than HuBchE” value in the test on Monkey BchE (RhBchE) (from Ki values) is reported as “about 2.9 fold”. The “fold lower Ki for RhBchE than HuBchE” value with Monkey BchE (RhBchE) (from Table 3) amounted to 3 fold. Besides, the Ki in the test with Monkey BchE (RhBchE) is 4.7 µM; at Human BchE (HuBchE), 13.6 µM.

Take (−)-norcocaine: the “fold higher Ki for RhBchE than HuBchE” value with Monkey BchE (RhBchE) (from Table 3) was found to be 2 fold. Further, the Ki amounted to 119 µM in the test with Monkey BchE (RhBchE) and 43 µM on Human BchE (HuBchE).
